# Cyclic peptide permeability, from CycPeptMPDB

Source: CycPeptMPDB (Li et al. 2023), which took these values from Townsend et al. 2020, doi:10.26434/chemrxiv.13335941.v1.

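Conditions beyond the assay type are not listed; see the original paper. Other peptides of the study may be missing here. Peptides that the database sets to -10, its floor, are left out.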

PAMPA measures passive passage through an artificial lipid membrane. Permeability is in 10^-6 cm/s, converted from the database's log10 values; higher is more permeable.

PAMPA (10^-6 cm/s)	structure (SMILES)
9.5	CC(C)C[C@@H]1C(=O)N2CCC[C@H]2C(=O)N(C)[C@@H](CC(C)C)C(=O)N[C@@H](Cc2ccccc2)C(=O)N2CCC[C@H]2C(=O)N[C@@H](C)C(=O)N(C)[C@@H](CC(C)C)C(=O)N1C
0.79	CC(C)C[C@@H]1NC(=O)[C@H]2CCCN2C(=O)CN(Cc2ccccc2)C(=O)[C@@H](CC(C)C)N(C)C(=O)[C@@H](C)NC(=O)[C@H](Cc2ccccc2)NC1=O
0.47	CC(C)C[C@@H]1NC(=O)[C@H](C)N(C)C(=O)[C@H](Cc2ccccc2)NC(=O)[C@@H](CC(C)C)NC(=O)[C@@H]2CCCN2C(=O)[C@H](CC(C)C)NC1=O
0.11	CC(C)C[C@@H]1NC(=O)[C@H](C)NC(=O)[C@@H]2CCCN2C(=O)[C@H](Cc2ccccc2)NC(=O)CN(Cc2ccccc2)C(=O)[C@H]2CCCN2C(=O)CN(Cc2ccccc2)C1=O
0.71	CC(C)C[C@@H]1NC(=O)[C@H](C)NC(=O)[C@H](Cc2ccccc2)NC(=O)[C@H](CC(C)C)N(C)C(=O)[C@@H]2CCCN2C(=O)[C@H](CC(C)C)NC1=O
14	CC(C)C[C@@H]1NC(=O)C[C@H](Cc2ccccc2)NC(=O)[C@H](Cc2ccccc2)NC(=O)[C@H](CC(C)C)NC(=O)[C@@H]2CCCN2C(=O)[C@@H](CC(C)C)NC1=O
0.27	CC(C)C[C@@H]1NC(=O)[C@H](C)NC(=O)[C@H]2CCCN2C(=O)[C@H](Cc2ccccc2)NC(=O)[C@H](CC(C)C)NC(=O)[C@H]2CCCN2C(=O)[C@H](CC(C)C)NC1=O
0.38	CC(C)C[C@H]1NC(=O)[C@H]2CCCN2C(=O)[C@@H](CC(C)C)NC(=O)CN(Cc2ccccc2)C(=O)[C@@H](C)NC(=O)[C@H](Cc2ccccc2)NC1=O
10	CCCN1CC(=O)N(C)[C@H](CC(C)C)C(=O)N[C@@H](CC(C)C)C(=O)N2CCC[C@@H]2C(=O)N(C)[C@@H](CC(C)C)C(=O)N[C@@H](Cc2ccccc2)C(=O)N2CCC[C@@H]2C1=O
4.6	CC(C)C[C@@H]1C(=O)N(C)[C@@H](CC(C)C)C(=O)N2CCC[C@@H]2C(=O)N(Cc2ccccc2)CC(=O)N[C@@H](Cc2ccccc2)C(=O)N2CCC[C@@H]2C(=O)N[C@@H](C)C(=O)N1C
2.8	CC(C)C[C@@H]1NC(=O)[C@H](C)N(C)C(=O)[C@H](Cc2ccccc2)NC(=O)[C@H](CC(C)C)N(C)C(=O)[C@H]2CCCN2C(=O)CN(Cc2ccccc2)C1=O
1.5	CCCN1CC(=O)N(C)[C@H](CC(C)C)C(=O)N(C)[C@H](CC(C)C)C(=O)N2CCC[C@H]2C(=O)N[C@H](CC(C)C)C(=O)N[C@@H](Cc2ccccc2)C(=O)N2CCC[C@@H]2C1=O
1.3	CC(C)C[C@H]1NC(=O)[C@@H]2CCCN2C(=O)[C@H](CC(C)C)N(C)C(=O)[C@@H](CC(C)C)NC(=O)C[C@H](Cc2ccccc2)NC(=O)[C@@H]2CCCN2C(=O)[C@H](Cc2ccccc2)NC1=O
4.8	CC(C)C[C@@H]1C(=O)N2CCC[C@H]2C(=O)N(C)[C@H](CC(C)C)C(=O)N[C@@H](Cc2ccccc2)C(=O)N2CCC[C@@H]2C(=O)N[C@@H](Cc2ccccc2)CC(=O)N[C@H](CC(C)C)C(=O)N1C
0.35	CC(C)C[C@@H]1NC(=O)[C@H]2CCCN2C(=O)CN(Cc2ccccc2)C(=O)[C@H](CC(C)C)NC(=O)[C@@H](C)N(C)C(=O)[C@H](Cc2ccccc2)NC1=O
0.56	CC(C)C[C@@H]1NC(=O)[C@@H]2CCCN2C(=O)[C@H](CC(C)C)N(C)C(=O)[C@@H](CC(C)C)NC(=O)[C@@H](C)N(C)C(=O)[C@H]2CCCN2C(=O)[C@H](Cc2ccccc2)NC1=O
1.4	CC(C)C[C@@H]1NC(=O)[C@@H](CC(C)C)N(C)C(=O)[C@@H](C)NC(=O)[C@H]2CCCN2C(=O)[C@H](Cc2ccccc2)NC(=O)CN(Cc2ccccc2)C(=O)[C@@H]2CCCN2C1=O
0.66	CC(C)C[C@H]1NC(=O)[C@H](C)N(C)C(=O)[C@H]2CCCN2C(=O)[C@H](Cc2ccccc2)NC(=O)CN(Cc2ccccc2)C(=O)[C@H]2CCCN2C(=O)[C@@H](CC(C)C)NC1=O
0.49	CC(C)C[C@@H]1NC(=O)[C@@H]2CCCN2C(=O)[C@@H](CC(C)C)N(C)C(=O)[C@@H](CC(C)C)NC(=O)[C@H](C)NC(=O)[C@H](Cc2ccccc2)NC1=O

Excerpt, the final 2 entries:

| structure (SMILES) | PAMPA (10^-6 cm/s) |
|---|---|
| CC(C)C[C@H]1NC(=O)[C@H](C)N(C)C(=O)[C@H]2CCCN2C(=O)[C@H](Cc2ccccc2)NC(=O)CN(Cc2ccccc2)C(=O)[C@H]2CCCN2C(=O)[C@@H](CC(C)C)NC1=O | 0.66 |
| CC(C)C[C@@H]1NC(=O)[C@@H]2CCCN2C(=O)[C@@H](CC(C)C)N(C)C(=O)[C@@H](CC(C)C)NC(=O)[C@H](C)NC(=O)[C@H](Cc2ccccc2)NC1=O | 0.49 |